Assay results published in US5710150A, “Benzazepine derivative, pharmaceutical composition thereof, and intermediate thereof” (Yamanouchi Pharmaceutical Co., Ltd., priority 1993, dated 1998).

Tested on: V1
Test: V1 antagonism in conscious rats (oral administration), AVP-induced diastolic blood pressure increase
Type: in vivo, male Wister rats
Settings: 10 mg/kg oral, AVP 30 mU/kg i.v.

Which “Pressure increment by AVP (before compound = 100%)” value (4 hours after administration) does the source give for CC(=O)NCCCOc1ccc(C(=O)N2CCC(N3C(=O)CCc4ccccc43)CC2)cc1 here?
Its value is 100%.

What about the “Pressure increment by AVP (before compound = 100%)” value (only during 30 minutes to 1 hour after administration) of the same compound?
The value was at most 50%.
